# ChEMBL document CHEMBL1944523, “Benzimidazolones: a new class of selective peroxisome proliferator-activated receptor γ (PPARγ) modulators” (J Med Chem, 2011)
# Protein sequences, listed by entry. Tags and fused reporters are not part of them.
# UniProt P37238, whole entry: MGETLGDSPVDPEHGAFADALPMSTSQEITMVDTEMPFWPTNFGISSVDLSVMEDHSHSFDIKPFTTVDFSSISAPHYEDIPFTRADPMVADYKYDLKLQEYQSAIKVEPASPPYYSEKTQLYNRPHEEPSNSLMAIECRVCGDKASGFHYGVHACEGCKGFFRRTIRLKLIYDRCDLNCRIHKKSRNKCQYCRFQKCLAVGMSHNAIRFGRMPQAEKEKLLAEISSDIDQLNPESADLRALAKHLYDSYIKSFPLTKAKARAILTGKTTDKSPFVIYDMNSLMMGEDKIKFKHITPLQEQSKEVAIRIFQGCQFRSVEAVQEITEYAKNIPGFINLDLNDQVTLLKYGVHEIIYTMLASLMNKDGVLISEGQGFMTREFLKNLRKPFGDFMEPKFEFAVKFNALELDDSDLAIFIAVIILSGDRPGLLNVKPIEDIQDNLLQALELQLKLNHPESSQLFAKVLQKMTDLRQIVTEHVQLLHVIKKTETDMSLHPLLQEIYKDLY
# Biological target: Peroxisome proliferator-activated receptor gamma (Mus musculus) (UniProt P37238)
# Experiment: Agonist activity at PPARgamma in mouse 3T3L1 cells assessed as 4619 microarray gene expression relative to rosiglitazone
# Assay type: functional, cell-based
# Conditions: 3T3-L1
smiles,measurement,value
COc1ccc2c(-n3c(=O)n(Cc4cccc([C@@]5(C)OC(=O)NC5=O)c4)c4ccccc43)noc2c1,Ratio,0.71
